The record followed here is patent US20230183263A1, “COMBINATION FOR TREATING HEPATITIS B” (FUJIAN AKEYLINK BIOTECHNOLOGY CO., LTD., priority 2020, published 2023).

The subject of this assay is D-type HBV. Description: Single drug in vitro antiviral activity in HBV-infected PHH (HBV DNA qPCR, HBeAg and HBsAg ELISA). In kind it is cell-based, Hepatitis B Virus. The text has this:
Experimental objective: The purpose of this study was to evaluate the in vitro anti-hepatitis B virus efficacy of the test compounds in combination with TAF (tenofovir alafenamide fumarate) and Peg-IFN-α2a (peginterferon α 2a) using human primary hepatocytes (PHH) isolated from a humanized FRG mouse model.
1. The PHH model was used to evaluate the single drug in vitro antiviral activity of the test compound
On day 0, primary human hepatocytes were resuscitated and plated into two 48-well plates (1.32×10^5 cells/well).
On day 1, HBV was added to infect PHH (2000 GE/cell). Two kinds of compound treatment methods were set up: One cell plate was treated with the test compound and Peg-IFNα-2a for four hours on day 1, and then the medium was then replaced with an HBV-containing medium to infect cells (at the same time, compounds were added to continue treatment); another plate was treated with test compound and Peg-IFNα-2a started on day 2. Fresh medium with compound was replaced every 1 to 2 days.
The final concentration of DMSO in the medium was 2%. The initial concentration of the test compound was 1000 nM, and the initial concentration of the control compound Peg-IFNα-2a was 500 lU/mL with 5-fold dilution, 7 concentration points, and three duplicate wells (see Table 3 for compound concentration settings).
The medium was replaced with the fresh medium containing the compound on days 4, 6, 8, 10, 12, 14, 16, 18 and 20. On day 22, the culture supernatant was collected and cell viability was detected using CellTiter-Glo.
Cell culture supernatants on days 8, 14 and 22 were collected for HBV DNA, HBeAg and HBsAg detection.
HBV DNA detection: DNA in the supernatant was extracted according to the DNA extraction kit (Qiagen-51162), and HBV DNA in the sample was quantified by qPCR method, and the qPCR reaction system is shown in Table 6. HBV plasmid DNA was used as a standard for 10-fold serial dilution, and the standard range was from 1.0× 10^7 copies/µL to 10 copies/µL. The PCR reaction program was: Heating at 95° C. for 10 minutes, then cycle mode was entered, and heating at 95° C. for 15 seconds, then at 60° C. for 1 minute for a total of 40 cycles. The HBV DNA content in the samples was calculated based on the standard curve and the Ct value of each sample.
Detection of HBeAg and HBsAg: According to the instructions of ELISA kit, the levels of HBeAg and HBsAg in supernatant were detected. The method was briefly described as follows: 50 µL, of standard was taken, and sample and control sample were added into the detection plate, then 50 µL of enzyme conjugate was added to each well, incubated at 37° C. for 60 minutes, and washed with a washing solution and then dried, and then 50 µL of pre-mixed luminescent substrate was added and the mixture was incubated at room temperature for 10 minutes in the dark, and finally the luminescence value was measured by a microplate reader. The content of HBeAg and HBsAg in the sample was calculated according to the standard curve and the chemiluminescence value of each sample.
Inhibition rate %=(1- HBV DNA content or HBsAg content or HBeAg content in the sample/HBV DNA content or HBsAg content or HBeAg content in DMSO control group) × 100
CC50 and EC50 were calculated by GraphPad Prism software, and the inhibition curve fitting method was sigmoidal dose-response (variable slope).

[1] abbreviates: administration before infection.

For the substance peginterferon α 2a [Peg-IFNα-2a], for the setting “administration after infection”, the “EC50 (Day 8) HBV DNA” value is listed as 0.81 IU/mL, the “EC50 (Day 8) HBeAg” value came out at 13.5 IU/mL and the “EC50 (Day 8) HBsAg” value came out at 42.76 IU/mL. Under setting [1], the “EC50 (Day 8) HBV DNA” value stood at 3.59 IU/mL, the “EC50 (Day 8) HBeAg” value is given as 8.53 IU/mL and the “EC50 (Day 8) HBsAg” value is recorded as 23.49 IU/mL.
